The values that follow are results of earlier work, collected in patent publication US5583117A, “Acylated uridine and cytidine for elevating tissue uridine and cytidine” (priority 1993, dated 1996).

This data set concerns brain. The following applies: intraventricular administration; cited from earlier work.

Consider `Nc1ccn([C@@H]2O[C@H](CO)[C@@H](O)[C@H]2O)c(=O)n1` [cytidine], for which the “concentrations of nucleotides, CDP-choline, CDP-ethanolamine and CMP” value is given as “measurable increase”.
